Source: US7482427B2, “Positive modulator of bone morphogenic protein-2” (BioSurface Engineering Technologies, Inc., priority 2002, dated 2009)

Tests used:
Fisher 344 rats = experiment: In vivo Matrigel plug assay (subcutaneous implant); details: single agent in Matrigel, 14 days
Description: In vivo Matrigel™ plug assay. The in vivo model involved subcutaneous implant in young adult Fisher 344 of growth factor-reduced Matrigel with and without BMP-2 and B2A2. Animals were anesthetized before all procedures by intra peritoneal injections of ketamine (50 mg/kg) and xylazine (5 mg/kg). Growth factor reduced Matrigel™ at 4° C. (liquid state) was mixed with saline (control), BMP-2 (R&D Systems, Minneapolis, Minn.), B2A2-K-NS, or B2A2-K-NS plus BMP-2. Aliquots of 0.5 mL of Matrigel™ with additives as above were injected subcutaneously on the upper flanks of the rats. The injection sites were clipped with stainless steel clips to prevent leakage. The Matrigel™ was kept on ice until the time of injection, as were the needle and syringe (to prevent gelling in the needle). The animals were subsequently euthanized after 14 days, the gel surgically removed, measured with calipers, and fixed in buffered formalin.
The fixed specimens were processed for histological examination and stained with either hemotoxylin and eosin or toluidine blue O (Histoserv, Inc., Germantown, Md.).
B2A2-K-NS analog was tested for its effect in vivo. Referring now to FIG. 9, a comparison of the area of explants excised from an area implanted with Matrigel™ containing B2A2-K-NK analog with and without BMP-2 is illustrated. Adult rats were implanted with Matrigel™ with and without BMP-2 and B2A2-K-NS and after 14 days the residual gel was surgically removed and measured. […] The morphology of the explants differed with differing explant compositions. Animals receiving only carrier had residual plugs that were small and tended to have morphology with poor cellular organization.

C3H10T½ cells = experiment: Alkaline phosphatase (ALP) activity assay in C3H10T½ cells; type: cell-based, Murine; details: BMP-2 alone
Description: Alkaline phosphatase (ALP) Activity Assay. C2C12 cells and C3H10T½ cells were cultured at 37° C. in a humidified atmosphere of 5% CO2 and 95% air, with DMEM/F12 medium supplemented with 10% serum, penicillin/streptomycin. For the BMP-2 induced ALP assay, cells were plated in 96-well (1×10^4/well) dishes in regular growth medium. Twenty-four hours later, when the cells formed a confluent monolayer, medium was replaced with DMEM/F12, supplemented with 2% serum and containing indicated concentration of BMP-2 and/or B2A2. At 4-5 days post induction, ALP activity was determined as described by Akiyama and colleagues (Akiyama et al. 1997, Exp Cell Res 235(2):362-9.) with modifications. Briefly, cells were washed once with phosphate-buffered saline (PBS) and lysed with 0.1% Triton×100 in 10 mM Tris HCl, pH 9.0. Protein concentration was determined using the BCA Protein Assay Kit (Pierce Biotechnology, Rockford, Ill.). Then ALP activity was measured by adding ALP buffer (1 M diethanolamine, 0.5 mM MgCl2, 1 mg/mL p-nitrophenylphosphate, pH 9.0), incubating in 37° C., and absorbance (405 nm) read at 15, 30 and 60 minutes using a microplate spectrophotometer (Molecular Devices, Sunnyvale, Calif.). The activity was expressed as O.D. per mg protein per hour. […]

EC50 for BMP-2 (C3H10T½ cells; ALP induction): ~0.3 µg/mL
Substance: BMP-2: E. coli or Chinese hamster ovary (CHO) cell-derived recombinant human BMP-2 from R&D Systems
morphology of the explants (histology) (Fisher 344 rats): increased numbers of cells accompanied by a moderate amount of organization that was consistent with developing membranous ossification
palpable implant sites upon inspection (Fisher 344 rats): Nearly all of the implant sites
size (area) of explants versus carrier only (Fisher 344 rats): significantly larger explants
threshold for BMP-2 induction of ALP (C3H10T½ cells): ~30 ng/mL
